FGF22 binding: binders of human FGF22 protein, primary screen, FGF22 synaptogenesis inhibitor project, biophysical, thermal shift, single point. Fibroblast growth factor 22 (Homo sapiens), Q9HCT0. recombinant FGF22 thermal shift, SYPRO orange fluorescence; percent of sucrose octasulfate shift, DMSO zero. activity (Tm shift, normalised), % at 9.99 µM. actives 1.5% (n = 340,000). AID 651658, 2012;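 active means mean Tm shift, scaled 0 neutral to 100 positive control, at about 1.3% or above, every replicate too, limit read from the data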
PDI turbidity: inhibitors of human PDI, primary screen, biochemical, turbidity, single point, plate reader | PDI insulin aggregation turbidity, A650, 90 min | actives 0.052% (n = 350,000) | Protein disulfide-isomerase (Homo sapiens), P07237 | inhibition, % at 10 µM;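 active means mean inhibition across replicates of 30% or more, whatever share of single replicates reach that level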
UUG fidelity: modulators of start codon recognition fidelity in yeast; AID 602363; activity score, % at 18.7 µM; S. cerevisiae UUG-firefly luciferase reporter, luminescence/redox ratio; actives 0.13% (n = 350,000);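 active = replicate mean at a twofold rise or more, about +100% in these data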;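 note: firefly luciferase made from a UUG start codon reports start codon fidelity; reporter light over untreated wells divided by growth signal over untreated wells; some hits fall short of that in this replicate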
PglD DTNB: C. jejuni PglD acetyltransferase inhibitors, primary screen, biochemical, DTNB colorimetric, single point; UDP-N-acetylbacillosamine N-acetyltransferase PglD (Campylobacter jejuni); purified PglD enzyme, DTNB colorimetric CoA detection; inhibition, % at 12.5 µM; actives 0.098% (n = 360,000); AID 602405, 2012; in the data active means inhibition above about 16%, passing the limit was not always enough
ARNT TACC3 PPI: disruptors of ARNT/TACC3 protein interaction, primary screen, biochemical, AlphaScreen, single concentration; Transforming acidic coiled-coil-containing protein 3 (Homo sapiens), Q9Y6A5; AlphaScreen His-ARNT PAS-B/GST-TACC3 binding, luminescence; TACC3 fragment carries E629A point mutation; inhibition, % at 9.99 µM; actives 0.66% (n = 390,000);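 active means mean inhibition of replicates at least 50% and at least half of replicates each reaching 50%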;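 further: 0% = complete ARNT plus TACC3 wells and 100% = ARNT alone without TACC3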
ERp5 inh: inhibitors of ERp5-driven insulin aggregation, primary screen, biochemical, turbidity, absorbance 650 nm, single point; AID 651711, 2012; actives 0.05% (n = 350,000); inhibition, % at 9.99 µM; 90 min;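 active means mean replicate inhibition above about 25%, with every replicate also reaching it, limit read from the data, passing the limit was not always enough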
Numbers without * were called inactive; . = not tested or not shown. Compounds with a hit are over-represented: about 1.9% of the library has one in this group of screens.

SMILES	FGF22 binding	PDI turbidity	UUG fidelity	PglD DTNB	ARNT TACC3 PPI	ERp5 inh
O=S(=O)(CCN1CCCCC1)CCS(=O)(=O)CCN1CCCCC1	44*	1	.	.	-14	2
NC(=O)CCS(=O)(=O)CCN1CCCCC1	.	5	-14	0	-2	.
COc1ccc(NC(=O)N(C)C[C@@H]2OCCCC[C@H](C)Oc3ccc(NS(=O)(=O)c4ccc(C)cc4)cc3C(=O)N([C@H](C)CO)C[C@H]2C)cc1	.	.	17	17*	2	2
COc1ccc(NC(=O)N(C)C[C@@H]2OCCCC[C@@H](C)Oc3ccc(NS(=O)(=O)c4ccc(C)cc4)cc3C(=O)N([C@H](C)CO)C[C@H]2C)cc1	.	.	30	7	1	3
COc1ccc(S(=O)(=O)Nc2ccc3c(c2)C(=O)N([C@H](C)CO)C[C@H](C)[C@H](CN(C)C(=O)Nc2c(C)noc2C)OCCCC[C@H](C)O3)cc1	1.3*	.	4	1	-1	0
COc1ccc(S(=O)(=O)Nc2ccc3c(c2)C(=O)N([C@H](C)CO)C[C@@H](C)[C@H](CN(C)C(=O)Nc2ccc(C(F)(F)F)cc2)OCCCC[C@@H](C)O3)cc1	1.2*	.	-10	-5	0	-5
Cc1noc(C)c1NC(=O)N(C)C[C@@H]1OCCCC[C@H](C)Oc2ccc(NC(=O)NC3CCCCC3)cc2C(=O)N([C@@H](C)CO)C[C@H]1C	1.5*	.	-10	2	2	-1
CCCNC(=O)C[C@@H]1CC[C@@H]2[C@H](COc3ccc(NC(=O)CCC)cc3C(=O)N2C)O1	0	.	15	3	-9	-34
CC=Cc1ccc2n(c1=O)C[C@@H]1[C@@H](CO)[C@H](C(=O)NC3Cc4ccccc4C3)N(CC3CCCC3)[C@H]21 (mixture of isomers)	0	.	.	.	.	-9
C[C@H]1CN([C@@H](C)CO)C(=O)c2cccc(NS(=O)(=O)c3cccs3)c2O[C@@H]1CN(C)C	-1	.	5	-3	8	-2
C[C@H](CO)N1C[C@H](C)[C@@H](CN(C)Cc2ccccc2C(F)(F)F)OCc2ccccc2-c2ccccc2C1=O	-1	.	.	.	.	-6
COc1ccc(NC(=O)N(C)C[C@@H]2Oc3ccc(NS(=O)(=O)c4cn(C)cn4)cc3C(=O)N([C@H](C)CO)C[C@H]2C)cc1	0	.	4	-1	active	-3

Three compounds out of the list, ordered by SMILES length, rising.
SMILES	FGF22 binding	PDI turbidity	UUG fidelity	PglD DTNB	ARNT TACC3 PPI	ERp5 inh
NC(=O)CCS(=O)(=O)CCN1CCCCC1	.	5	-14	0	-2	.
Cc1noc(C)c1NC(=O)N(C)C[C@@H]1OCCCC[C@H](C)Oc2ccc(NC(=O)NC3CCCCC3)cc2C(=O)N([C@@H](C)CO)C[C@H]1C	1.5*	.	-10	2	2	-1
COc1ccc(S(=O)(=O)Nc2ccc3c(c2)C(=O)N([C@H](C)CO)C[C@@H](C)[C@H](CN(C)C(=O)Nc2ccc(C(F)(F)F)cc2)OCCCC[C@@H](C)O3)cc1	1.2*	.	-10	-5	0	-5

(list continues)
SMILES	FGF22 binding	PDI turbidity	UUG fidelity	PglD DTNB	ARNT TACC3 PPI	ERp5 inh
COc1ccc(S(=O)(=O)Nc2ccc3c(c2)C(=O)N([C@@H](C)CO)C[C@H](C)[C@@H](CN(C)Cc2ccc4c(c2)OCO4)OCCCC[C@@H](C)O3)cc1	0	.	18	0	1	-12
CC1(C)CCC(=NNC(N)=S)CC1	0	-1	-17	-2	21*	2
Cc1ccc(C)n1-c1ccc(-c2ccn[nH]2)cc1	43*	-4	3	12	-8	5
CCOc1ccc2c(c1)C(C)=CC(C)(C)N2C(=O)Nc1ccccc1	.	0	.	.	48*	.
C[C@H](CO)N1C[C@H](C)[C@H](CN(C)C(=O)C2CCCCC2)Oc2cc(C3=CCCCC3)ccc2S1(=O)=O	0	.	9	3	2	-6
CO[C@H]1CN(C)C(=O)c2ccc(NC(=O)CC(F)(F)F)cc2OC[C@H](C)N(S(=O)(=O)c2cn(C)cn2)C[C@H]1C	0	.	.	0	-1	3
Cc1cn(-c2ccccc2)c(C)c1/C=N\Nc1nc(N2CCOCC2)nc(N2CCOCC2)n1	43*	-6	.	.	12	1
O=[N+]([O-])c1cccc(/C=N/Nc2nc(N3CCOCC3)nc(N3CCOCC3)n2)c1	44*	12	.	.	-13	0
C(=C\c1ccccc1)/C=N/Nc1nc(N2CCOCC2)nc(N2CCOCC2)n1	.	-2	.	.	-5	.
O=[N+]([O-])c1ccc(/C=N/Nc2nc(N3CCOCC3)nc(N3CCOCC3)n2)cc1	.	8	.	.	-24	.
